Patent US10203331B2, “Single cell drug response measurements via live cell interferometry” (The Regents of the University of California, priority 2011, dated 2019)

Tests used:
[1] = test system: MCF-7 breast cancer cell line; assay: aLCI mass response profiling; assay type: cell-based, human; details: 20 ug/ml trastuzumab, over 7 h
Method: (§1) Mass response profiling of four human breast cancer cell lines was performed in real-time using aLCI with co-incubation of 20 ug/ml clinical grade trastuzumab. For each cell type, a control well containing only culture media and a treated well containing trastuzumab were measured simultaneously. […] Importantly, these cell lines grow with very different morphologies. MDA-MB-231 and SK-BR-3 lines grow as single cells or in loose disaggregated clusters, whereas MCF-7 and BT-474 lines grow as dense multi-cellular colonies (FIG. 13). The relative scale between a single MCF-7 cell (mass˜5×10^2 pg) and a large colony (˜22×10^3 pg) covers a 44-fold difference in mass (FIG. 14).
(§2) BT-474, SK-BR-3, MDA-MB-231, and MCF-7 breast cancer cell lines were obtained from American Type Culture Collection (Rockville, Md.). All lines were maintained in RPMI 1640 (Cellgro; Manassas, Va.) growth media supplemented with 10% fetal bovine serum (Omega; Tarzana, Calif.) and 1% penicillin, streptomycin, and L-glutamine.
(§3) Clinical grade trastuzumab (Herceptin) (Genentech; South San Francisco, Calif.) was used at 20 ug/ml.
(§4) 5×10^4 cells were seeded into 12-well plates and allowed to adhere and grow for 2 days before beginning treatment. On days 0, 3, 5, and 7 of treatment with 20 ug/ml Herceptin, cells were trypsinized and counted. To calculate the fold change, the doubling time was determined (DT=t*(log(2)/log(Nt/N0))) for control and drug treated samples and the fold change taken as DTdrug/DTctrl. DT=doubling time, t=time, Nt=number or mass of cells at time t, N0=number or mass of cells at time t=0.
(§5) The live cell interferometer has been described previously (see, e.g. J. Reed, et al. Biophys J. 2011, 101, 1025-31; J. Reed, et al. ACS Nano. 2008, 2, 841-6; J. Reed, et al. Nanotechnology. 2008, 19). The system consists of a modified Bruker NT9300 optical profiler (Bruker; Tucson, Ariz.) with a 20×0.28NA Michelson interference objective. The Michelson interferometer contains a beam splitter, reference mirror, and compensating fluid cell to account for the optical path differences induced by the fluid surrounding the sample. The phase shifting (PSI) method was used to capture phase images of the cell samples. To enable multi-sample imaging, aLCI employs a small motor to adjust the interferometer reference mirror for small differences in cover glass optical path length at each sample well.
(§6) Image analysis was performed using a custom, multi-step program written in Matlab (Mathworks Inc., Natick, Mass.). The first step was a phase-unwrapping step to remove phase-errors (integer wavelength errors due to the ambiguity inherent in quantitative phase imaging) which remained after processing by the Goldstein phase unwrapping algorithm employed by Bruker Vision software (Bruker Nano Inc., Tucson, Ariz.). This algorithm uses multiple random walks away from each pixel to remove integer wavelength jumps and non-physical excursions below background level. The second step is to segment each image into cell or colony objects using a combination of a local adaptive median filter and a watershed transform. Finally, objects identified by image segmentation were tracked using the particle tracking code adapted for Matlab by Daniel Blair and Eric Dufresne, based on an IDL particle tracking code (see, e.g. J C. Crocker, et al. Journal of Colloid and Interface Science. 1996, 179, 298-310).

[2] = test system: MDA-MB-231 breast cancer cell line; assay: aLCI mass response profiling; assay type: cell-based, human; details: 20 ug/ml trastuzumab, over 7 h
Method: as §1, §2, §3, §4, §5, §6

[3] = test system: BT-474 breast cancer cell line; assay: aLCI mass response profiling; assay type: cell-based, human; details: 20 ug/ml trastuzumab
Method: as §1, §2, §3, §4, §5, §6

[4] = test system: SK-BR-3 breast cancer cell line; assay: aLCI mass response profiling; assay type: cell-based, human; details: 20 ug/ml trastuzumab
Method: as §1, §2, §3, §4, §5, §6

[5] = test system: MCF-7 breast cancer cell line; details: O'Brien et al.; cited from earlier work
[6] = test system: MDA-MB-231 breast cancer cell line; details: O'Brien et al.; cited from earlier work
[7] = test system: BT-474 breast cancer cell line; details: 5-7 day proliferation assays; O'Brien et al.; cited from earlier work
[8] = test system: SK-BR-3 breast cancer cell line; details: 5-7 day proliferation assays; O'Brien et al.; cited from earlier work

In the case of trastuzumab, the “difference in growth rates treated vs control” value [1] is reported as “no significant difference”, the “increase in mass over time, treated versus control samples” value [1] is reported as “identical increase in mass over time” and the “difference in growth rates treated vs control” value [2] is reported as “no significant difference”. The “increase in mass over time, treated versus control samples” value [2] was “identical increase in mass over time”, the “time at which growth rates of treated and control samples begin to diverge” value [3] was ~4 h and the “control-to-treated mass fold change (mean+/-standard error)” value ([3]; after 6 h) was 1.70+/−0.39. For the same substance, the “time at which growth rates of treated and control samples begin to diverge” value [4] was ~4 h, the “control-to-treated mass fold change (mean+/-standard error)” value ([4]; after 6 h) was 1.24+/−0.10 and the “trastuzumab sensitivity in vitro” value [5] was “resistant”. For the same substance, the “trastuzumab sensitivity in vitro” value [6] was “resistant”, the “trastuzumab sensitivity in vitro” value [7] was “differentially sensitive” and the “trastuzumab sensitivity in vitro” value [8] was “differentially sensitive”.
